Measured values as given in patent publication EP4591861A1, “USE OF 4-TMAP FOR TREATING OR RELIEVING DEPRESSION” (IBIOME Biotechnology Co., Ltd., priority 2022, dated 2024).
Entries after “also recorded” stand apart in the source; their conditions may differ. Where two headings read alike, the source gives them in different places.

Columns and labels:
[1] = system: Cort-induced depression model; settings: mouse, in vivo, iv, 0.1 mg/kg
Method: (§1) The tail suspension test uses tape to suspend mice by their tails in a position where they cannot escape or grab onto nearby surfaces. A camera is mounted in front of the mice to record the activity of the mice for 6 minutes while they are suspended. The last 4 min of the video is then analyzed to determine the time the mice spend immobile. This test is based on the idea that animals that are subjected to short-term, unavoidable stress will develop an immobile posture, and the more severe the depressive phenotype, the less time they will spend trying to escape.

[2] = system: CRS-induced depression model; settings: mouse, in vivo, iv, 0.1 mg/kg
Method: as §1

[3] = system: AAD-induced depression model; assay: Tail suspension test in AAD-induced depression model; design: species or system mice; settings: mouse, in vivo, iv
Method: as §1
(§2) 11, 12, and 13. […] At the same time, it still has a significant antidepressant effect at concentrations of 0.3 mg/kg, 1 mg/kg, and 10 mg/kg.

[4] = system: Cort-induced depression model; settings: mouse, in vivo, iv, 0.1 mg/kg; remark: listed apart in the source
Method: (§3) The forced swimming test apparatus is a transparent 20×30cm round barrel filled with pure water, with a diameter of 20cm and a water depth of 15cm. The pure water temperature is 23-25°C. A camera is installed in front of the apparatus and is flush with the water surface. After the mouse is placed in the water, a video of its activities in the water is collected for 6 minutes. The last 4 min of the video were analyzed to determine the immobility time of the mouse. Immobility behavior is defined as the behavior of the mouse floating, not struggling, or relying only on occasional swinging to maintain floating. The longer the immobility time, the more severe the depression.

[5] = system: CRS-induced depression model; settings: mouse, in vivo, iv, 0.1 mg/kg; remark: listed apart in the source
Method: as §3

[6] = system: AAD-induced depression model; assay: Forced swimming test in AAD-induced depression model; assay type: in vivo, mice
Method: as §3, §2

CC(CCC(=O)[O-])[N+](C)(C)C (centres unmarked) [4-TMAP, 4-(trimethylammonio) pentanoate]
immobility time [1]: significantly lower | immobility time [2]: significantly lower | immobility time ([3]; 0.1 mg/kg): significantly lower; also recorded: significantly reduce; also recorded: loses its effect; also recorded: tends to reduce | immobility time ([3]; 0.3 mg/kg): significantly reduce | immobility time ([3]; 1 mg/kg): significantly reduce | immobility time ([3]; 10 mg/kg): significantly reduce | immobility time [4]: significantly lower | immobility time [5]: significantly lower | minimal effective dose ([6]; Mus musculus, iv, 2 h, read-out: minimum therapeutic dose): 0.1 mg/kg | effective concentration compared with Brexpiprazole ([6]; mouse, in vivo): lower effective concentration | immobility time ([6]; mouse, in vivo, iv, 0.1 mg/kg): significantly lower; also recorded: significantly reduce; also recorded: tends to reduce; also recorded: loses its effect | immobility time ([6]; mouse, in vivo, iv, 0.3 mg/kg): significantly reduce | immobility time ([6]; mouse, in vivo, iv, 1 mg/kg): significantly reduce | immobility time ([6]; mouse, in vivo, iv, 10 mg/kg): significantly reduce
